Patent US20110124657A1, “METHOD FOR SCREENING OF 5HT7 RECEPTOR LIGANDS BASED ON A NEW PHARMACOPHORE MODEL AND A DESCRIPTOR'S PROFILE FILTER” (LABORATORIOS DEL DR. ESTEVE, S.A., priority 2008, published 2011)
This is a selection: effects in other tests are not listed, and their absence says nothing.

Chains of the proteins cited; added tags and fusions are not shown.
UniProt P34969, whole entry: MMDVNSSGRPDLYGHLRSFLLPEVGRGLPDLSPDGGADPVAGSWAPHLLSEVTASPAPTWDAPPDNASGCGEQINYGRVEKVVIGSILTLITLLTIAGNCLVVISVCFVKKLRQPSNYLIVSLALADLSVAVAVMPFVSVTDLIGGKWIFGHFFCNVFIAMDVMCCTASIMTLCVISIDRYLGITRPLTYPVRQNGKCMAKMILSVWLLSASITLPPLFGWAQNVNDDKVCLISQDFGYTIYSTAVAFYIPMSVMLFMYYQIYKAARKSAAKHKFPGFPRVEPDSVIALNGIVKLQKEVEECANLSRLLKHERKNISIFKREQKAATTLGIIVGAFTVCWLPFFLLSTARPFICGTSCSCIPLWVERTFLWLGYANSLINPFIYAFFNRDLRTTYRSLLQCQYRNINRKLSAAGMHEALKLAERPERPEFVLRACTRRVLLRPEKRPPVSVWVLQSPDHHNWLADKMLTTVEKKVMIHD

Target: Cloned Human Serotonin Receptor, Subtype 7 (h5HT7), expressed in CHO cells (Homo sapiens, UniProt P34969)
Test: Radioligand binding, [125I]LSD, Flashplate
Conditions: compound at 10^−6 M; radioligand [125I]LSD 0.82 nM
Protocol: Radioligand binding assays were performed using the Cloned Human Serotonin Receptor, Subtype 7 (h5HT7), expressed in CHO cells, coated on Flashplate (Basic FlashPlate Cat.: SMP200) from PerkinElmer (Cat.: 6120512). The protocol assay was essentially the recommended protocol in the Technical Data Sheet by PerkinEmer Life and Analytical Sciences. The Mass membrane protein/well was typically 12 μg and the Receptor/well was about 9-10 fmoles. The Flashplate were let equilibrate at room temperature for one hour before the addition of the components of the assay mixture. The binding buffer was: 50 mM Tris-HCl, pH 7.4, containing 10 mM MgCl2, 0.5 mM EDTA and 0.5% BSA. The radioligand was [^125I]LSD at a final concentration of 0.82 nM. Nonspecific binding was determined with 50 μM of Clozapine. The assay volume was 25 μl. […] The radioactivity were quantified by liquid scintillation spectrophotometry (Wallac 1450 Microbeta Trilux) with a count delay of 4 minutes prior to counting and a counting time of 30 seconds per well. Competition binding data were analyzed by using the LIGAND program (Munson and Rodbard, LIGAND: A versatile, computerized approach for characterization of ligand-binding systems. Anal. Biochem. 107: 220-239, 1980) and assays were performed in triplicate determinations for each point.

With `O=c1[nH]c2ccccc2n1C1CCN(Cc2ccc(F)c(F)c2)CC1` the “%-Inhib. (10^−6 M)” value was 61.2%.
